Laboratory results: PubChem BioAssay AID2025 (NMMLSC, 2009)
The list shows a part of the results, in another mix than the full data. Activity calls are given as the source filed them.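 The calls were made as follows: active = percent response vs DMSO below 50%; inconclusive = fewer than 70 events counted for the yeast strain; inactive = the rest.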

Experiment: compounds altering RPL19A-GFP fluorescence, TOR branch – cell-based, S. cerevisiae, multiplex flow cytometry, MLPCN, primary screen (AID 2025);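 also: median channel GFP fluorescence of the barcoded RPL19A-GFP strain; ratio of sample median GFP to plate DMSO average so 100% = DMSO; lower means less RPL19A-GFP as with rapamycin TOR inhibition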
Conditions: S. cerevisiae RPL19A-GFP strain, 3 h, at 10 µM, active compounds read low

| Compound | percent response vs DMSO |
| --- | --- |
| CCC(=O)N(c1ccccc1)C1(COC)CCN(CCn2nnn(CC)c2=O)CC1 | inactive: 97.5% |
| CCC(=O)N(c1ccccc1)C1(COC)CCN(CCc2cccs2)CC1 | inactive: 103% |
